# Results from US20130095094A1, “ASSAY” (University of Leicester, priority 2010, published 2013).
# Sequences of proteins named here, by UniProt entry; tags and fusion partners are left off. Residues count along the entry.
# UniProt O00206, 24-839: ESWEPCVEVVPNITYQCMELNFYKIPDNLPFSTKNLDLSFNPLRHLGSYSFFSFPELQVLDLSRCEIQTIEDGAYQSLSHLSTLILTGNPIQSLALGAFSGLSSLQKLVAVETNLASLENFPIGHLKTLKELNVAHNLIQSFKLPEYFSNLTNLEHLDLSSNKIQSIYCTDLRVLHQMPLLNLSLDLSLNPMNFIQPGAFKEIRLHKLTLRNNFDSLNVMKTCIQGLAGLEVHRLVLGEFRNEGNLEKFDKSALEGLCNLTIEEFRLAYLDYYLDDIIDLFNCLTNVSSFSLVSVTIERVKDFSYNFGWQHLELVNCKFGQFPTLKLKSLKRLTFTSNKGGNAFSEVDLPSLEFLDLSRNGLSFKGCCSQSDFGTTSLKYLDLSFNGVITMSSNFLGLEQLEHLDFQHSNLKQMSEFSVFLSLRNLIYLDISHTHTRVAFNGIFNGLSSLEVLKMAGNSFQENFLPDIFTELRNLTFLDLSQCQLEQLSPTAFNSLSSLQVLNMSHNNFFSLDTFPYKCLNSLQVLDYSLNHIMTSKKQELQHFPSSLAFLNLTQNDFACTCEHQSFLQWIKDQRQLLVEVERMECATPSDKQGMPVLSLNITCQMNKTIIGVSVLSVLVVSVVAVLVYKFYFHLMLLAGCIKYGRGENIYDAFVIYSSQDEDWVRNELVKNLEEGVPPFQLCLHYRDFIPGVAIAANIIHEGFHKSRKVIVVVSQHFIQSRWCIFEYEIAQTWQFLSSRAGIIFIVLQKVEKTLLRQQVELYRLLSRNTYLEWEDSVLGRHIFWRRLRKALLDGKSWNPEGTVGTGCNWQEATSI
# UniProt Q9Y6Y9, 17-160: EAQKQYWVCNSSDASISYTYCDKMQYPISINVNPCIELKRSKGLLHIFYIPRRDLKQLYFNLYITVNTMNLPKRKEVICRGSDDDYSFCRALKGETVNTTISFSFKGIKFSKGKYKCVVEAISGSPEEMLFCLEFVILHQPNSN
# Entries after “also recorded” stand apart in the source; their conditions may differ.
# Biological target: T1, human TLR-4 (co-expressing MD-2) (Homo sapiens, UniProt O00206+Q9Y6Y9)
# T1 construct: host or cells: HEK-293
# Type: cell-based
substance,measurement,value
polymyxin-B,Inhibition of TLR4-signalling induced by patient saliva samples,significantly inhibited
same,Inhibition of TLR-4-signalling induced by sterile-filtered food extracts,blocked; also recorded: efficiently inhibited
